A selection: hits, their analogues and other compounds. The true share with any hit is near 16%.
miR-21 reporter – raises the signal of a miR-21 reporter; HeLa miR-21 FLuc reporter, luciferase, 48 h; Potency, µM (highest dose often 38.3 µM); 340,000 tested, under 10 active; active = well fitted rising curve with a large enough effect; inconclusive = small, poorly fitted or top-dose-only effect; inactive = no such curve, though single readings can be large or run the other way;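 note: miR-21 action dims this reporter so a rising signal means less miR-21 action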
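Using DMEM plus 10% FBS, HeLa miR-21-FLuc cells are incubated with test compounds (final up to about 40uM) for 48 hours; firefly luciferase signal is then imaged following reagent-mediated lysis.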
TDP1 cell CPT – DT40-hTDP1 cell growth loss with CPT; chicken DT40 Tdp1-/-;hTDP1 cells + 20 nM CPT, ATP luminescence, 48 h; Potency, µM (titrated, usually from 46.2 µM), most hits filed as inhibitors; 420,000 tested, 12% active; AID 686979; note: nearly all actives have a fitted effect of over 55% in size
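Chicken DT40 Tdp1-/- cells stably complemented with human TDP1 were seeded at 400 cells/well in medium containing 20 nM camptothecin, exposed to pin-transferred compounds, and grown at 37 °C for at least 48 hr. Viability was read as ATP luminescence.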
TDP1 block – inhibitors of human tyrosyl-DNA phosphodiesterase TDP1; Q9NUW8; recombinant TDP1, AlphaScreen DNA substrate cleavage; Potency, µM (highest dose often 130 µM), usual class: inhibitors; 350,000 tested, 0.28% active; note: nearly all actives have a fitted effect of over 40% in size
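Compounds were preincubated with Tdp1 (1 nM final) for 15 min at room temperature before substrate (15 nM final) started a 5 min reaction; beads (10 ug/ml final) were then added for 10 min before AlphaScreen detection.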
DT40 TDP1 no CPT – qHTS for Inhibitors of human tyrosyl-DNA phosphodiesterase 1 (TDP1): qHTS in cells in absence of CPT. Potency, µM (series often up to 46.2 µM), hits mostly inhibitors. DT40 Tdp1-/- hTDP1 cells, no CPT, ATP luminescence, 48 h. 420,000 tested, 15% active; note: nearly all actives have a fitted effect of over 55% in size
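DT40 Tdp1-/-;hTDP1 cells, no CPT (DMSO vehicle only), 400 cells/well; compounds pin-transferred; ≥48 hr, 37 °C; CellTiter-Glo 30 min RT dark, luminescence read.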
uPA generation – blocks generation of uPA at the cell surface; cell surface uPA generation assay, qHTS; Potency, µM (highest dose often 38.3 µM), hits mostly inhibitors; 330,000 tested, 0.31% active; AID 540303; active = well fitted inhibition curve with a large enough effect; inconclusive = small, poorly fitted or top-dose-only effect; inactive = no such curve, though single readings can be large or run the other way; tested in mouse RAW 264.7 cells; note: nearly all actives have a fitted effect of over 55% in size
A number is an active result; – = inactive; ? = inconclusive; · = no result given. Unless noted, calls come from the whole dose curve; as a rule, active = well fitted curve in the direction sought with a large enough effect; inconclusive = small, poorly fitted or top-dose-only effect, or another doubt; inactive = no such curve, though single readings can be large; an effect the other way counts as inactive or inconclusive.

SMILES	miR-21 reporter	TDP1 cell CPT	TDP1 block	DT40 TDP1 no CPT	uPA generation
Cc1cc(NC(=O)Nc2ccccc2Cl)no1	–	–	–	–	–
Cc1c(Cl)cccc1NC(=O)Nc1cc(C(C)(C)C)on1	–	?	·	15µM	–
O=C(CN1CCN(c2ccccc2F)CC1)Nc1nnc(C(F)(F)F)s1	–	–	–	?	–
CCn1c(=N)n(CC(O)c2cccs2)c2ccccc21 (centres undefined)	–	?	–	?	–
COc1cc(C(=O)O[C@H]2C/C(C)=C/CC[C@@]3(C)O[C@@H]3[C@H](O)[C@@H]2C(C)C)cc(OC)c1OC	–	16µM	·	23µM	–
CCOc1ccc(S(=O)(=O)N2CCN(C(=O)CN3C(=O)NC(C)(C)C3=O)CC2)cc1	·	–	–	–	–
CSCc1cc(N2CCOCC2)nc(SCc2ccc(Cl)c(Cl)c2)n1	–	21µM	–	–	–
O=C(O)C(Cc1ccccc1)NC(=O)C(Cc1ccccc1)NC(=O)C12CC3CC(CC(C3)C1)C2 (centres undefined)	·	–	·	–	–
CCCN1CCc2c(sc(NC(=O)c3ccc(S(=O)(=O)N(C)c4ccccc4)cc3)c2C(N)=O)C1	–	21µM	–	?	–
CN1CCc2c(sc(NC(=O)c3ccc(S(=O)(=O)N4CCc5ccccc54)cc3)c2C(N)=O)C1	–	·	·	·	·
CN1CCc2c(sc(NC(=O)c3ccc(S(=O)(=O)N4CCCCCC4)cc3)c2C(N)=O)C1	–	18µM	–	12µM	–
CN1CCc2c(sc(NC(=O)c3ccc(S(=O)(=O)N4CCOCC4)cc3)c2C(N)=O)C1	–	–	–	–	–
CCCN1CCc2c(sc(NC(=O)c3ccc(S(=O)(=O)N(C)c4ccccc4)cc3)c2C(=O)NC)C1	–	?	–	?	–
CN1CCc2c(sc(NC(=O)c3ccc(S(=O)(=O)N4CCCC4)cc3)c2C(N)=O)C1	–	?	–	16µM	–
CN1CCc2c(sc(NC(=O)c3cc(Cl)sc3Cl)c2C(N)=O)C1	–	?	·	21µM	–
CCN(C(=O)CSc1nnc(NCc2ccccc2)s1)C1CCS(=O)(=O)C1 (centres undefined)	–	–	–	–	–
C/C(=C\c1ccc(F)cc1)C(=O)c1c(C)cc(C)[nH]c1=O	–	–	·	?	–
CC1(C)CC(=O)C(CS(=O)(=O)c2ccccc2)=C(O)C1	–	–	–	–	–
CNC(=O)c1c(NC(=O)c2ccc(S(=O)(=O)N3CCCc4ccccc43)cc2)sc2c1CCN(C)C2	–	23µM	·	13µM	–
CC(C)N1CCc2c(sc(NC(=O)c3ccc(S(=O)(=O)N(C)CC4CCCO4)cc3)c2C(N)=O)C1 (centres undefined)	–	–	–	–	–
NC(=O)c1ccsc1NC(=O)c1ccc([N+](=O)[O-])o1	·	13µM	–	8.2µM	7.1µM
CN1CCc2c(sc(NC(=O)c3ccc([N+](=O)[O-])o3)c2C(N)=O)C1	–	1.6µM	–	3.7µM	–
NC(=O)c1ccsc1NC(=O)COC(=O)c1ccc([N+](=O)[O-])o1	·	?	–	–	–
CCN1CCc2c(sc(NC(=O)c3ccc(S(=O)(=O)N(C)CC4CCCO4)cc3)c2C(N)=O)C1 (centres undefined)	–	–	–	21µM	–
CC1(C)CC(=O)C=C(C(=O)N2CCCC(C(=O)c3cc(F)ccc3F)C2)O1 (centres undefined)	·	–	·	?	·
SMILES	miR-21 reporter	TDP1 cell CPT	TDP1 block	DT40 TDP1 no CPT	uPA generation
COc1cc(CN2CCNC(=O)C2CC(=O)N(Cc2nccn2C)C(C)C)cc(OC)c1 (centres undefined)	–	–	·	–	–
CNC(=O)c1ccsc1NC(=O)c1ccc2c(c1)CCCC2	–	?	–	?	?
NC(=O)c1ccsc1NC(=O)c1ccc2c(c1)CCCC2	–	15µM	–	?	?
CCOC(=O)N1CCN(S(=O)(=O)c2ccc(C(=O)Nc3sc4c(c3C(N)=O)CCN(CC)C4)cc2)CC1	–	?	–	21µM	–
COc1cccc(CC(=O)OCc2csc(CC(=O)Nc3ccccc3C)n2)c1	·	–	–	–	–
O=C(N/N=C/c1ccccc1)c1cccc2ccccc12	·	?	·	1.3µM	–
O=C(N/N=C\c1ccccc1)c1cccc(C(=O)N/N=C\c2ccccc2)n1	·	–	·	?	–
O=C(N/N=C/c1ccc([N+](=O)[O-])cc1)c1cccc2cc[nH]c12	–	–	–	?	–
CCN(CC)c1ccc(/C=N\NC(=O)c2cccc3cc[nH]c23)cc1	–	5.2µM	–	2.9µM	–
Cc1ccc(/C=N/NC(=O)c2cccc3ccccc23)o1	–	13µM	–	8.2µM	–
Cc1ccc(/C=N/NC(=O)c2c[nH]c3ccccc23)o1	–	–	–	–	?
COc1ccc(OC)c(NC(=O)C2C3C=CC(C3)C2C(=O)NCc2cccnc2)c1 (centres undefined)	–	–	–	–	–
CCc1ccccc1NC(=O)CN(C)C(=O)CSc1nnc(Nc2cccc(C)c2C)s1	–	?	–	?	–
CN(C)C(=O)CCc1ccc2c3c([nH]c2c1)[C@]1(C)[C@@H](C(=O)N2CCOCC2)C[C@H](CC(=O)NC(C)(C)C)C(=O)N1CC3	·	–	–	–	–
COc1ccc(CNC(=O)C[C@H]2C[C@H](C(=O)N(C(C)C)C(C)C)[C@@]3(C)c4[nH]c5cc(CCC(=O)N(C)C)ccc5c4CCN3C2=O)cc1OC	·	–	–	?	–
CC[C@]12c3[nH]c4cc(CCC(=O)N(C)C)ccc4c3CCN1C(=O)[C@@H](CC(=O)NCC13CC4CC(CC(C4)C1)C3)C[C@@H]2C(=O)N1CCN(C(=O)c2ccco2)CC1	·	?	–	16µM	–
CN(C)C(=O)CCc1ccc2c3c([nH]c2c1)[C@]1(C)[C@@H](C(=O)N2CCOCC2)C[C@H](CC(=O)NCC24CC5CC(CC(C5)C2)C4)C(=O)N1CC3	·	15µM	–	?	–
CC(C)N(C(=O)[C@H]1C[C@H](CC(=O)NCC23CC4CC(CC(C4)C2)C3)C(=O)N2CCc3c([nH]c4cc(CCC(=O)N(C)C)ccc34)[C@]12C)C(C)C	·	6.5µM	–	7.3µM	?
CN(C)C1=NCC(CSC(=N)N)S1 (centres undefined)	–	?	–	–	?
COc1cc2[nH]c3c(N4CCN(c5ccc(Cl)cc5)CC4)ncnc3c2cc1OC	–	18µM	–	18µM	–
COc1ccc(C=O)c2[nH]c3c(Cl)ncnc3c12	–	–	·	?	–
COc1cc2[nH]c3c(Cl)ncnc3c2cc1OC	–	?	–	21µM	?
O=C(c1ccco1)N1CCN(c2ncnc3c2[nH]c2ccc(Cl)cc23)CC1	–	·	–	·	·
COc1ccccc1CCNC(C)CCc1ccc(O)cc1 (centres undefined)	–	?	–	–	–
